Source: patent publication US6071908A (priority 1995, dated 2000)
This is a selection: effects in other tests are not listed, and their absence says nothing.

What was measured:
[1] = Assay 1: radiolytic reduction of prodrug in formate buffer (or other solution), products analysed by HPLC; conditions: prodrug 50 μM in sodium formate pH 7.0, anoxic, cobalt-60
UV4 cells = test: Cytotoxicity against UV4 cells, 4 hr aerobic exposure; format: cell-based; conditions: read-out: IC50, P (unirradiated prodrug); UV4, 4 hr aerobic exposure; mean ± SEM

Compound	G(+E), anoxic, Assay 1 (yield of effector) [1] [μM/Gy]	IC50 (UV4 cells) [µM]
C[N+](CCCl)(CCCl)Cc1cccc([N+](=O)[O-])c1	0.045	
C[N+](CCCl)(CCCl)Cc1ccc([N+](=O)[O-])cc1	0.20	35
